Compound activity as filed in PubChem.
An excerpt weighted towards active compounds, which were near 1.3% of everything screened.
SR-BI uptake up = enhances SR-BI lipid uptake from DiI-HDL | CHO ldlA[mSR-BI] cells, DiI-HDL uptake fluorescence, 3 h; 100 = double the neutral-control signal | 0.096% of 320,000 active | activation, % at 12.5 µM;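 active = mean replicate activation of at least 60% and every replicate at or above 60%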;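 note: 0% = median plate neutral-control signal and 100% = twice that signal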
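Material – SR-BI-overexpressing, LDLR-lacking CHO cells · Medium – BSA-supplemented, HEPES-buffered Ham's F12, pH 7.4 · Doses – single concentration · Times – compound with DiI-HDL co-incubation, 3 h at 37 °C · Measured by – bottom-read fluorescence, 550/595 nm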
INS-1E GSIS act = GLuc luminescence reporter in INS-1E cells, primary screen for activators of glucose-dependent secretion of insulin; 0.61% of 370,000 active; INS-1E GLuc reporter insulin secretion, 2-3 h; AID 743287; activation, % at 16.6 µM;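 active = lowest replicate activation of at least 40%, so every replicate reaches that level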;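 note: 0% = median of neutral control wells and 100% = median of IBMX positive control wells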
UUG fidelity = yeast start codon fidelity modulation; activity score, % at 18.7 µM; actives 0.13% (n = 350,000); S. cerevisiae UUG-firefly luciferase reporter, luminescence/redox ratio; AID 602363;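 active means replicate mean at a twofold rise or more, about +100% in these data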;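 further: firefly luciferase made from a UUG start codon reports start codon fidelity; reporter light over untreated wells divided by growth signal over untreated wells; some hits fall short of that in this replicate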
SR-BI HDL uptake = inhibitors of mouse SR-BI mediated HDL lipid uptake; Q61009; ldlA[mSR-BI] CHO cells, DiI-HDL uptake fluorescence, 3 h; inhibition, % at 12.5 µM; 0.96% of 320,000 active;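 active = mean replicate inhibition of at least 70% and a set share of replicates each scoring 70 or more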;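 note: 0% = median of neutral control wells and 100% = median of positive control wells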
Numbers without * were called inactive; . = no result given.

SR-BI uptake up	INS-1E GSIS act	UUG fidelity	SR-BI HDL uptake	Compound
-52	.	-12	52	CC(=O)Nc1ccc(C(=O)N/N=C/c2ccccc2OC(=O)c2ccc(Cl)cc2)cc1
-117	17	.	117*	COc1cc(C(=O)Oc2ccccc2/C=N/NC(=O)c2ccc(Cl)cc2)cc(OC)c1OC
.	1	-16	.	O=C(C[C@@H]1C[C@@H]2c3cc(NC(=O)Nc4ccccc4)ccc3O[C@@H]2[C@@H](CO)O1)NCc1cccc(F)c1
.	-6	.	.	C[C@@H]1CN([C@H](C)CO)S(=O)(=O)c2ccc(C#CC3CCCC3)cc2O[C@@H]1CN(C)C(=O)c1cccc(F)c1
.	-37	-2	.	O=C(C[C@H]1CC[C@H]2[C@@H](COC[C@H](O)CN2C(=O)Nc2ccc(Cl)cc2)O1)N1CCCCC1
.	-13	.	.	CC=Cc1ccc2n(c1=O)C[C@H]1[C@H](CO)[C@@H](C(=O)NCCC)[C@@H]2N1Cc1ccccc1 (mixture of isomers)
.	6	-5	.	C[C@H]1CN([C@@H](C)CO)C(=O)c2cc(NC(=O)CCC(F)(F)F)ccc2O[C@H]1CN(C)S(=O)(=O)c1cccs1
-11	-10	.	11	NS(=O)(=O)c1ccc(NC(=S)N2CCN(Cc3ccc(Cl)c(Cl)c3)CC2)cc1
28	108*	-18	-28	NS(=O)(=O)c1ccc(NC(=S)N2CCN(c3ccc(Cl)c(Cl)c3)CC2)cc1
.	-14	2	.	COc1ccc(CN(C)C[C@H]2Oc3ccc(NC(=O)Nc4ccc5c(c4)OCO5)cc3C(=O)N([C@H](C)CO)C[C@H]2C)cc1
.	12	.	.	CO[C@@H]1CN(C)C(=O)c2cc(NS(=O)(=O)CC(F)(F)F)ccc2OC[C@@H](C)N(Cc2nccs2)C[C@H]1C
-14	.	-6	14	COc1ccc(C(=O)Nc2nc(-c3ccc([N+](=O)[O-])cc3)c(-c3ccccc3)s2)cc1
-90	.	.	90*	COc1ccc(-c2sc(NC(=O)c3ccc(C)cc3)nc2-c2ccc([N+](=O)[O-])cc2)cc1
.	-19	.	.	COc1cccc(NC(=O)N2CC(=O)N3[C@@H](CO)[C@H](c4ccc(C5=CCCC5)cc4)[C@@H]3C2)c1
-62	-20	-41	62	Cc1ccc(NC(=S)c2nc3ccccc3[nH]2)c(C)c1

Shown with values under each structure: entries from further up
Each structure is followed by: SR-BI uptake up	INS-1E GSIS act	UUG fidelity	SR-BI HDL uptake
- COc1ccc(CN(C)C[C@H]2Oc3ccc(NC(=O)Nc4ccc5c(c4)OCO5)cc3C(=O)N([C@H](C)CO)C[C@H]2C)cc1
    .	-14	2	.
- CO[C@@H]1CN(C)C(=O)c2cc(NS(=O)(=O)CC(F)(F)F)ccc2OC[C@@H](C)N(Cc2nccs2)C[C@H]1C
    .	12	.	.
- COc1ccc(C(=O)Nc2nc(-c3ccc([N+](=O)[O-])cc3)c(-c3ccccc3)s2)cc1
    -14	.	-6	14
- COc1ccc(-c2sc(NC(=O)c3ccc(C)cc3)nc2-c2ccc([N+](=O)[O-])cc2)cc1
    -90	.	.	90*

Other records.
SR-BI uptake up	INS-1E GSIS act	UUG fidelity	SR-BI HDL uptake	Compound
-77	.	-23	77*	Cc1ccc(NC(=S)c2nc3ccccc3[nH]2)cc1
.	43*	.	.	Cc1ccccc1S(=O)(=O)N1CC(=O)N2[C@@H](CO)[C@H](c3ccc(C#CCC4CCCC4)cc3)[C@@H]2C1
-83	-11	.	83*	CCCCN1C(=O)/C(=C2/Sc3ccccc3N2C)S/C1=N\c1ncn[nH]1
.	0	.	.	COc1ccc2c3c([nH]c2c1)[C@H](CO)N(S(=O)(=O)c1cn(C)cn1)CC31CCN(Cc2ccccc2)CC1
-78	-13	.	78*	O=C(N/N=C/c1cc(Cl)ccc1O)c1ccccc1Br
-135	0	-8	135*	O=C(N/N=C\c1cc(Cl)ccc1O)c1ccc(S(=O)(=O)N2CCCCC2)cc1
25	-2	-11	-25	O=C(N/N=C/c1cccnc1)c1cccc(Cl)c1
-70	-7	-26	70*	O=C(N/N=C/c1cc(Cl)ccc1O)c1cccnc1
-6	2	-8	6	O=C(Nc1cc(S(=O)(=O)Nc2ccc(Cl)cc2)ccc1O)c1ccc(S(=O)(=O)N2CCCCCC2)cc1
-132	-4	-38	132*	O=C(N/N=C/c1cc(Cl)cc(Cl)c1O)c1ccncc1
.	-20	.	.	Cc1ccccc1-c1cnc2c(c1)C(=O)N([C@@H](C)CO)C[C@H](C)[C@@H](CN(C)C(=O)CC1CC1)O2
.	-4	8	.	CN1c2ccc(-c3cccc(F)c3)cc2[C@H]2[C@H](CCN2C(=O)c2ccncc2)[C@H]1CO
.	8	-5	.	COCC#Cc1ccc([C@@H]2[C@@H](CO)N3CCCCN(S(=O)(=O)c4ccc(OC)cc4)C[C@H]23)cc1
.	10	.	.	O=C(Cc1ccccn1)NCC[C@H]1CC[C@H](NC(=O)Nc2ccc(Cl)cc2)[C@H](CO)O1
-130	-3	-4	130*	Oc1c(Cl)cc(Cl)cc1/C=N/Nc1ncc(Br)cn1
.	15	.	.	O=C(C[C@@H]1C[C@@H]2c3cc(NS(=O)(=O)c4ccc(F)cc4)ccc3O[C@@H]2[C@H](CO)O1)NC1CCCCC1
-88	-2	.	88*	O=[N+]([O-])c1cccc(/C=C2\CCC(/C=N/Nc3ccc4ccccc4n3)=C2N2CCOCC2)c1
-22	7	.	22	O=[N+]([O-])c1cccc(/C=N/Nc2nc(N3CCOCC3)nc(N3CCOCC3)n2)c1
